The record followed here is US7183252B2, “Indole peptidomimetics as thrombin receptor antagonists” (Ortho-McNeil Pharmaceutical, Inc., priority 1999, dated 2007).

Chains of the proteins cited; added tags and fusions are not shown. Residues count along the entry.
UniProt P25116, 22-425 limits assumed: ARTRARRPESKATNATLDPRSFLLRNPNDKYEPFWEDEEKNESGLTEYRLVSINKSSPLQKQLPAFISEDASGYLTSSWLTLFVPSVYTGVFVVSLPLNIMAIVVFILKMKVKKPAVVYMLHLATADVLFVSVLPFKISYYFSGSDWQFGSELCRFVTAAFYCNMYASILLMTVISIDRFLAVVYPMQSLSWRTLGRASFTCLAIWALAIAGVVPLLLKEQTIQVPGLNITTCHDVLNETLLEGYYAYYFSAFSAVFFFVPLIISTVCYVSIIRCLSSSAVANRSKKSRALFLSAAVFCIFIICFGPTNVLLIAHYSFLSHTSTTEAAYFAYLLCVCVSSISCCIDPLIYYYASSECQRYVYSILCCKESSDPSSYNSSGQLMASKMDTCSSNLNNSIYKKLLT

The test system of experiment [1] is gel-filtered platelets. As to the kind of experiment: In vitro inhibition of thrombin-induced gel-filtered platelet aggregation. The conditions noted are these: read-out: Thrmb IC50 (Thrombin-induced aggregation of gel-filtered platelets); human gel-filtered platelets; agonist thrombin 50 μL of 1 unit/mL. On the procedure:
In Vitro Inhibition of Thrombin-Induced Gel-Filtered Platelet Aggregation Assay
The percentage of platelet aggregation is calculated as an increase in light transmission of compound-treated platelet concentrate vs. control-treated platelet concentrate. Human blood is obtained from drug free, normal donors in tubes containing 0.13M sodium citrate. Platelet rich plasma (PRP) is collected by centrifugation of whole blood at 200×g for 10 min at 25° C. The PRP (5 mL) is gel filtered through Sepharose 2B (bed volume 50 mL), and the platelet count is adjusted to 2×10^7 platelets per sample. The following constituents are added to a siliconized cuvette: concentrated platelet filtrate and Tyrode's buffer (0.14M NaCl, 0.0027M KCl, 0.012M NaHCO3, 0.76 mM Na2HPO4, 0.0055M glucose, 2 mg/mL BSA and 5.0 mM HEPES @ pH 7.4) in an amount equal to 350 μL 50 μL of 20 mM calcium and 50 μL of the test compound. Aggregation is monitored in a BIODATA aggregometer for the 3 min following the addition of agonist (thrombin 50 μL of 1 unit/mL).
Table 7 contains IC50 values (μM) of the compounds in a thrombin receptor binding assay, and IC50 values (μM) against platelet aggregation stimulated by thrombin.

The target in experiment [2] is thrombin receptor (PAR-1) (Homo sapiens, UniProt P25116). In words: In vitro thrombin receptor binding assay (CHRF membranes). The conditions noted are these: read-out: Bndg IC50 (Thrombin receptor binding), tritiated 721-40 radioligand.

As for `NCC[C@H](NC(=O)[C@H](Cc1ccc(F)c(F)c1)NC(=O)Nc1cccc2c(CN3CCCC3)cn(Cc3c(Cl)cccc3Cl)c12)C(=O)NCCN1CCCC1`, the IC50 in experiment [1] was determined as 23.3 µM; in experiment [2], 21.6 µM.

On to `Cc1ccccc1Cn1cc(CN2CCCC2)c2cccc(NC(=O)N[C@@H](Cc3ccc(F)c(F)c3)C(=O)N[C@@H](CCN)C(=O)NCCN3CCCC3)c21`, for which the results for the IC50 in experiment [1] and in experiment [2] were 12.8 µM and 8.8 µM, respectively.
